In patent EP0755938B1, “Ligated polyoxometalates and method for their synthesis” (THE B.F. GOODRICH COMPANY, priority 1995, dated 1997):

Test: Solubility test in hexane (Table 1)
Assay type: physicochemical
Conditions: result in words
Protocol: The ligated polyoxometalates of Examples 1-18 were tested for solubility in hexane, together with the organoammonium octamolybdate utilized as a control.

[(C13H27)2NH2]4{(C6H5P)2Mo5O21} [Example 6]
Hexane soluble: soluble
